Literature values, collected in patent US6159733A, “Method for photoinactivating malignant cells” (priority 1996, dated 2000).

System: cells
Conditions: cited from earlier work

hematoporphyrin derivative [HPD]
cell size and photosensitizer uptake: correlation between cell size and photosensitizer uptake
